{
  "source": "patent US9675652B2",
  "about": "“Compositions and methods to relieve chronic diseases symptoms” (priority 2011, dated 2017)",
  "tested_on": "Hep G2.2.15 cells",
  "test": "Cell viability by MTT, Hep G2.2.15 cells",
  "format": "cell-based, human",
  "details": "5 uM",
  "experimental": "The Hep G2.2.15 cells were seeded at 3×10^4 cells/well into 96-well culture plates and incubated at 37° C. in 5% CO2 overnight. After 3 to 4 days, the confluent cultures were cultured at 37° C. for another 3 to 5 days for HBV surface antigen (HBsAg) and HBV e-antigen (HBeAg) induction. Various concentrations of test articles including the positive control substance were then added during the 72 hrs induction period. The cultured media were harvested by centrifugation and the levels of HBsAg and HBeAg were analyzed with commercial enzyme-linked immunosorbant assay (ELISA) kits for HBsAg qualitative testing (General Biologicals Corp., SURASE B-96 (TMB)) and that for HBeAg qualitative testing (General Biologicals Corp., EASE BN-96 (TMB)), respectively. The activity expressed in terms of the efficiency of antigen secretion in percentage (hereinafter referred to as “relative activity”) was calculated with the equation Relative activity (%)=The ratio of the amount of antigen in the cultured medium with treatment to that without treatment×100.\nCell viability was assayed by the MTT method. Adefovir dipivoxil (ADFV, Patheon Inc., Canada), an antiviral agent, was used as positive control.",
  "data": [
    {"smiles": "CC(C)(C)C(=O)OCOP(=O)(COCCn1cnc2c(N)ncnc21)OCOC(=O)C(C)(C)C", "note": "[Adefovir, Adefovir dipivoxil]", "values": [
      {"measurement": "MTT (+) drug/(−) drug (Ratio), cytotoxicity", "result": 0.975}
    ]}
  ]
}
